Values of other authors as cited in US20090012326A1 (priority 2006, published 2009).

Tested on: plasma proteins, specially albumin
Details: cited from earlier work

O=C([O-])c1ccccc1O.[Na+] [sodium salicylate, 2-hydroxybenzoic acid sodium salt]
circulating salicylate bound to plasma proteins: more than 80%
